Measurements from PubChem BioAssay AID588664 (The Scripps Research Institute Molecular Screening Center, 2011).
The list shows a part of the results, in another mix than the full data. Active and inactive are the calls of the source. Rule as the data show it: active = inhibition above about 5% (passing the limit was not always enough); inactive = the rest.

Protein sequences, listed by entry. Tags and fused reporters are not part of them.
UniProt P00519, whole entry, looked up: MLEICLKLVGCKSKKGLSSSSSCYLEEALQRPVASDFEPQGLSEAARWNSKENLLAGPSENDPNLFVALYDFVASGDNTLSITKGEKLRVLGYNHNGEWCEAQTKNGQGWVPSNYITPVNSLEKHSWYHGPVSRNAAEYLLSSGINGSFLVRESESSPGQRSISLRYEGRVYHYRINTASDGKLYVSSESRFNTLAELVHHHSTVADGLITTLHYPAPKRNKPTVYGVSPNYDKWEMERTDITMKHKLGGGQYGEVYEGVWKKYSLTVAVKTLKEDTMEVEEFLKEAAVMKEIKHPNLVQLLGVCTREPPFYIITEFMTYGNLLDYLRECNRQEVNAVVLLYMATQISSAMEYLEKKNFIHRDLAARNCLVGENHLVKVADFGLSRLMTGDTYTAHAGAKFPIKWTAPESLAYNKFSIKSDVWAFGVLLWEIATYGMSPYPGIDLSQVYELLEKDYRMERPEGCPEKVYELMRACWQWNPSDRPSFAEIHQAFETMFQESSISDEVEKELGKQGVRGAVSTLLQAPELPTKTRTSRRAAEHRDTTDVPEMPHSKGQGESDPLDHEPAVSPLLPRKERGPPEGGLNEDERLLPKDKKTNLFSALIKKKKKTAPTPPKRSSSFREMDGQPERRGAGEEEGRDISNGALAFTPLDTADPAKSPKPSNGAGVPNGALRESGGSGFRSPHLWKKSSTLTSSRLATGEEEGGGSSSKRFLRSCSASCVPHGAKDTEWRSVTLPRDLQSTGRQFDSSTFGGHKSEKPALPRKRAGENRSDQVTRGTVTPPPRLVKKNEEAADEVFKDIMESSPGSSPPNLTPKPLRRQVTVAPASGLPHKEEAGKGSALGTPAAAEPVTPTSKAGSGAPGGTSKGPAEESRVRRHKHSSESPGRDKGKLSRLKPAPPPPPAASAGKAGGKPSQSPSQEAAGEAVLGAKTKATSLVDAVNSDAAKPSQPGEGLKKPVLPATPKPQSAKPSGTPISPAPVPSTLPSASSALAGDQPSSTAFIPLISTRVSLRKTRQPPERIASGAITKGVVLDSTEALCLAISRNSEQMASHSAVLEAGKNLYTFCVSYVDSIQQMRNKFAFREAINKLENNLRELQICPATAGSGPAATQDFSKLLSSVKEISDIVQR
UniProt Q13671, whole entry, looked up: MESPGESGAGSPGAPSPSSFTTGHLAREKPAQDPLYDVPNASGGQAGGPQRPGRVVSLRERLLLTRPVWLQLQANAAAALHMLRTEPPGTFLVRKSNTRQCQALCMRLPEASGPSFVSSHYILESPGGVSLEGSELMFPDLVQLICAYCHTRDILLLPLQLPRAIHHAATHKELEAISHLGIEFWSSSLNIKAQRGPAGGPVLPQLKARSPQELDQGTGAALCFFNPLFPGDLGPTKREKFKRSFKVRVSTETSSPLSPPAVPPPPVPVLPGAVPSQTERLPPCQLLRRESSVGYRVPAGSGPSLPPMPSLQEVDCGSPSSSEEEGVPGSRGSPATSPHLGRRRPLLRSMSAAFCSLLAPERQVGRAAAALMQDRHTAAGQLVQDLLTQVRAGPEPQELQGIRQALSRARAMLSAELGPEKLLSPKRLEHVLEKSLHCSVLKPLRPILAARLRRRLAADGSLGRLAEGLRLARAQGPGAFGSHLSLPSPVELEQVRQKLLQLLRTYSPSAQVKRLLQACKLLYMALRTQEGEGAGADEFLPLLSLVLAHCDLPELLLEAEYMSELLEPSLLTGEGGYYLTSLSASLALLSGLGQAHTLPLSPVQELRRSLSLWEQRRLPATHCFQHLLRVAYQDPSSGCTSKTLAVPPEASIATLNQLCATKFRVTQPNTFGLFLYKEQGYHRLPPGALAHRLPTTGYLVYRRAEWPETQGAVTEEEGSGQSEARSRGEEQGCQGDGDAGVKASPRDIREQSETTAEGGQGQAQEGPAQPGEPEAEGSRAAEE

The molecules below were run against Tyrosine-protein kinase ABL1 (Homo sapiens) + Ras and Rab interactor 1 (Homo sapiens) (UniProt P00519+Q13671) (assay: inhibitors of Rin1-Abl protein binding, primary screen, biochemical, TR-FRET (AID 588664)). Settings: at 7.35 µM, hits give high values.
With `O=C(NCC1(N2CCCCC2)CCCCC1)c1ccc(OC(F)F)cc1` the inhibition was inactive: 1.45%. `O=C(NCC1(N2CCCCC2)CCCCC1)c1cccc([N+](=O)[O-])c1` was tested, and the inhibition was inactive: 0.69%. In the case of `CSc1ccc(C(=O)NCC2(N3CCOCC3)CCCCC2)cc1`, the inhibition is reported as inactive: 5.38%. In the case of `CCN1CCC(Nc2ccc(Cl)cc2)CC1`, the inhibition is reported as inactive: -1.16%. In the case of `O=c1[nH]c2ccccc2n1C1CCN(C(c2ccccc2OC(F)(F)F)c2nnnn2C2CCCC2)CC1` (stereo not drawn), the inhibition is reported as inactive: 0.17%. For `N#CC1(Nc2ccccc2)CCN(CCc2ccccc2)CC1`, the inhibition was inactive: 3.52%. With `CN1CCC(Nc2cccc(F)c2)CC1` the inhibition was inactive: -2.28%. With `O=C(NCC1(N2CCCCC2)CCCCC1)c1cncc(Br)c1` the inhibition was inactive: 0.64%. In the case of `Cc1ccc(C(=O)NCC2(N(C)C)CCCCC2)o1`, the inhibition is reported as inactive: -3.4%. With `CCCOc1ccc(C(=O)NCC2(N(C)C)CCCCC2)cc1OC` the inhibition was inactive: 6%. `COc1ccc(C(c2nnnn2C2CCCC2)N2CCC(n3c(=O)[nH]c4ccccc43)CC2)cc1` (stereo not drawn) was tested, and the inhibition was inactive: 4.67%. In the case of `COc1ccc(CN(CCCl)CCCl)cc1Cl`, the inhibition is reported as inactive: 3.6%. With `CN(C)c1cccc(C(=O)NCC2(N3CCCCC3)CCCCC2)c1` the inhibition was inactive: -1.57%. `CCCCn1nnnc1C(c1ccccc1OC(F)(F)F)N1CCC(n2c(=O)[nH]c3ccccc32)CC1` (stereo not drawn) was tested, and the inhibition was inactive: 4.81%. With `CC(C)c1ccc(NC2CCN(C(=O)OC(C)(C)C)CC2)cc1` the inhibition was inactive: -2.71%. In the case of `CCCCn1nnnc1C(c1ccnc2ccccc12)N1CCC(n2c(=O)[nH]c3ccccc32)CC1` (stereo not drawn), the inhibition is reported as inactive: 5.95%. With `COc1cc(OC)c(C(=O)NCC2(N(C)C)CCCCC2)cc1OC` the inhibition was inactive: 2.65%. In the case of `CCC(c1nnnn1C(C)(C)C)N1CCC(n2c(=O)[nH]c3ccccc32)CC1` (stereo not drawn), the inhibition is reported as active: 18.6%. For `O=C(NCC1(N2CCOCC2)CCCCC1)c1cc(F)c(F)cc1Cl`, the inhibition was inactive: -0.69%. With `O=C(NCC1(N2CCOCC2)CCCCC1)c1cc2ccccc2o1` the inhibition was inactive: -2.47%. For `O=C(NCC1(N2CCCCC2)CCCCC1)c1ccc(Cl)nc1`, the inhibition was inactive: 1.71%. With `O=c1[nH]c2ccccc2n1C1CCN(C(c2ccccc2OC(F)(F)F)c2nnnn2C2CCCCC2)CC1` (stereo not drawn) the inhibition was inactive: 9.78%. With `Cc1cc(C)cc(N(C(=O)c2ccccc2)C2CCN(C(=O)OC(C)(C)C)CC2)c1` the inhibition was inactive: 6.61%. `CCOC(=O)N1CCC(Nc2ccc(OC)cc2)CC1` was tested, and the inhibition was inactive: -0.48%. With `CCCCn1nnnc1C(c1ccc(OC)cc1)N1CCC(n2c(=O)[nH]c3ccccc32)CC1` (stereo not drawn) the inhibition was inactive: 6.4%. For `O=C(NCC1(N2CCCCC2)CCCCC1)c1ccc(Cl)s1`, the inhibition was inactive: -0.77%. For `N#CC1(Nc2ccccc2)CCN(Cc2ccccc2)CC1`, the inhibition was inactive: -4.02%. `O=c1[nH]c2ccccc2n1C1CCN(C(c2cc3ccccc3o2)c2nnnn2C2CCCCC2)CC1` (stereo not drawn) was tested, and the inhibition was active: 22.7%. With `O=C(OC1CN2CCC1CC2)C1c2ccccc2Oc2ccccc21` (stereo not drawn) the inhibition was inactive: 0.21%. With `COc1ccc(Cl)cc1C(=O)NCC1(N2CCOCC2)CCCCC1` the inhibition was inactive: 0.83%. In the case of `O=C(NCC1(N2CCCCC2)CCCCC1)c1ccc(=O)[nH]c1`, the inhibition is reported as inactive: -1.29%. In the case of `CCCCn1nnnc1C(CC)N1CCC(n2c(=O)[nH]c3ccccc32)CC1` (stereo not drawn), the inhibition is reported as inactive: 5.14%. With `O=C(NCC1(N2CCCCC2)CCCCC1)c1cccs1` the inhibition was inactive: 0%. For `CCCCn1nnnc1C(c1cccs1)N1CCC(n2c(=O)[nH]c3ccccc32)CC1` (stereo not drawn), the inhibition was inactive: 7.06%. For `COc1ccc(C(=O)NCC2(N3CCCCC3)CCCCC2)cc1`, the inhibition was inactive: -0.53%. In the case of `COc1ccc(C(=O)NCC2(N3CCCCC3)CCCCC2)c(OC)c1OC`, the inhibition is reported as inactive: 0.88%. In the case of `CC(C)(C)OC(=O)N1CCC(N(C(=O)c2ccccc2)c2ccc(F)cc2)CC1`, the inhibition is reported as inactive: 0.16%. For `CCC(c1nnnn1C1CCCC1)N1CCC(n2c(=O)[nH]c3ccccc32)CC1` (stereo not drawn), the inhibition was active: 19.8%. In the case of `CSc1ccccc1C(=O)NCC1(N2CCCCC2)CCCCC1`, the inhibition is reported as inactive: -2.57%. For `Cc1cccc(NC2(C#N)CCN(Cc3ccccc3)CC2)c1`, the inhibition was inactive: 2.34%. In the case of `O=c1[nH]c2ccccc2n1C1CCN(C(c2ccccc2)c2nnnn2C2CCCCC2)CC1` (stereo not drawn), the inhibition is reported as inactive: 14.4%. `O=c1[nH]c2ccccc2n1C1CCN(C(c2cccc3ccccc23)c2nnnn2C2CCCC2)CC1` (stereo not drawn) was tested, and the inhibition was inactive: 1.75%. With `CCOC(=O)N1CCC(Nc2cccc(C)c2)CC1` the inhibition was inactive: -1.78%. In the case of `COc1cc(C(=O)NCC2(N(C)C)CCCCC2)ccc1OC(F)F`, the inhibition is reported as inactive: -1.53%. For `CCOc1ccc(C)cc1CN(CCCl)CCCl`, the inhibition was inactive: -0.92%. `CC(C)(C)n1nnnc1C(c1ccccc1)N1CCC(n2c(=O)[nH]c3ccccc32)CC1` (stereo not drawn) was tested, and the inhibition was inactive: 3.57%. With `O=C1CCN(Cc2ccccc2)CC1` the inhibition was inactive: 2.9%. In the case of `CCCCOc1ccc(C(=O)NCC2(N3CCOCC3)CCCCC2)cc1`, the inhibition is reported as inactive: 3.68%. `CCCCn1nnnc1C(c1cc2ccccc2o1)N1CCC(n2c(=O)[nH]c3ccccc32)CC1` (stereo not drawn) was tested, and the inhibition was inactive: 6.98%. With `O=P1(N(CCCl)CCCl)SCCCS1` the inhibition was inactive: 4.26%. For `O=C(NCC1(N2CCCCC2)CCCCC1)c1ccc(F)cc1`, the inhibition was inactive: -1.38%. For `CCOC(=O)N1CCC(Nc2ccc(F)cc2)CC1`, the inhibition was inactive: -0.15%. In the case of `COc1ccc(NC2CCN(CCc3ccccc3)CC2)c(OC)c1`, the inhibition is reported as inactive: 3.31%.
